Source: article PMC6278073 (BMC Pharmacology & Toxicology, 2018)

Assays:
[1] = both, C57BL/6, mouse, in vivo, 10 mg/kg
in vivo = conditions: both, C57BL/6, mouse, 10 mg/kg

With Cc1ccc(NC(=O)c2ccc(CN3CCN(C)CC3)cc2)cc1Nc1nccc(-c2cccnc2)n1 [imatinib] the bioavailability [1] was 107% and the bioavailability (in vivo) was 100%.

Like-named read-outs stand apart in the source and are kept apart here.
